By UniProt entry, the sequences of proteins in these tests, tags left out.
UniProt P08913, whole entry: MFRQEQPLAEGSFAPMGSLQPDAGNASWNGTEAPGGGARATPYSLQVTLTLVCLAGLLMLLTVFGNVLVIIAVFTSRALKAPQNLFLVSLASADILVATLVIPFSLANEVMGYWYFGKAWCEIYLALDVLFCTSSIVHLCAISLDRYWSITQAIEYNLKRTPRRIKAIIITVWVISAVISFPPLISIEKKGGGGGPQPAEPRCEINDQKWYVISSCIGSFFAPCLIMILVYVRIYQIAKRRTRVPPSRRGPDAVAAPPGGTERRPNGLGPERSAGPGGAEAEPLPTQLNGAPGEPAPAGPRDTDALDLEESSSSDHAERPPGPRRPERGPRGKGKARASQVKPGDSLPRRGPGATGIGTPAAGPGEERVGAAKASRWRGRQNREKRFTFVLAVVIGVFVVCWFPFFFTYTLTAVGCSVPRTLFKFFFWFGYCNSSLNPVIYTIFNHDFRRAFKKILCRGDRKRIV

In patent publication US6777426B2, “Imidazole and imidazoline derivatives and uses thereof” (Synaptic Pharmaceutical Corporation, priority 1997, dated 2004):

Biological target: T1, human α2a adrenergic receptor (Homo sapiens, UniProt P08913)
T1 construct: expressed in transfected cells; host or cells: LM(tk−) cells (L-α2A, ATCC CRL-11180), vector pCEXV-3
Experiment: α2 agonist activity: inhibition of forskolin-stimulated cAMP synthesis, α2a cells
Assay type: cell-based
Conditions: cloned human α2a
Procedure: Binding and functional assays were performed using stably transfected cells expressing human α adrenergic receptors. Equilibrium competition binding assays were performed with membrane preparations from cultured LM(tk−) cells stably transfected with the cloned human adrenoceptor subtypes except for a21, which was expressed In Y-1 cells, using [^3H]prazosin for α1 receptors and [^3H]rauwolscine for […].
These cell lines were prepared by transfecting cloned cDNA or cloned genomic DNA or constructs containing both genomic DNA and cDNA encoding the human a adrenergic receptors as described below.
The agonist activity (expressed as pEC50) was measured as a function of the ability to inhibit the forskolin-stimulated synthesis of cyclic adenosine monophosphate (cAMP). The stably transfected cells were incubated in Ham's F10 with 5 mM theophylline, 10 mM HEPES, 17 mM pargyline, and/or appropriate concentrations of forskolin for 20 min. at 37° C. in 5% CO2. The tested compounds were then added to a final concentration of 0.001 nM to 1 mM and incubated for an additional 15 min. at 37° C. in 5% CO2. […] The assessment of cAMP formation was determined by radioimmunoassay (cAMP radioimmunoassay kit; Advanced magnetics, Cambridge, Mass.). Radioactivity was quantified using a Packard COBRA Auto Gamma counter equipped with data reduction software.

α2a IA (Intrinsic Activity): (1.00)
SMILES: Brc1c(NC2=NCCN2)ccc2nccnc12 [UK-14, 304, reference compound]
